These results are taken from patent publication US8680146B2, “Organic compounds” (Novartis AG, priority 2008, dated 2014).

This series can be described thus: Solubility study of FTY720 salts in various solvents. The conditions noted are these: approx. values at 25° C. Type of series: physicochemical. The protocol: The solubilities of various salts were assessed and are given in the table below (approx. values at 25° C., g/100 ml %): […]

With Tartrate, the “Solubility in Acetone” value (Acetone) came to 0.06 g/100 ml %. Besides, the “Solubility in Ethanol” value (Ethanol) stood at 0.07 g/100 ml %. The “Solubility in Ethylacetate” value (Ethylacetate) is listed as 0.05 g/100 ml %. Also, the “Solubility in Isopropanol” value (Isopropanol) turned out to be 0.09 g/100 ml %. Moreover, the “Solubility in Water” value (Water) was found to be 0.036 g/100 ml %.
